# Measured values: PMC6832524, “A Nature-Inspired Design Yields a New Class of Steroids Against Trypanosomatids” (Molecules, 2019)
# Tested on: bone marrow polychromatic erythrocytes
# Conditions: 50 mg/kg intraperitoneal, positive control; sum in five trials, 5000 PEC observed
compound,measurement,value
"O=P1(N(CCCl)CCCl)NCCCO1 (stereo not shown) [Cyclophosphamide, reference compound]",Number of MnPE,180
